Source: US9700644B2, “One part, solids containing decontamination blend composition” (dated 2017)

Assay: Storage stability of aspirin at 40° C. with or without citric acid coating
Details: 8 weeks of storage

Q: Which “% Aspirin Lost (8 weeks)” value does the source give for `CC(=O)Oc1ccccc1C(=O)O` here?
A: 8.4%
